Literature values, collected in publication PMC7589491, “Biomimetic Artificial Membrane Permeability Assay over Franz Cell Apparatus Using BCS Model Drugs” (Pharmaceutics, 2020).

Conditions: fraction of dose absorbed in humans; cited from earlier work

For `Cn1c(=O)c2[nH]cnc2n(C)c1=O` [Theophylline], the “Fa(%)” value is given as 97%.
